{
  "source": "patent US20180193659A1",
  "about": "“PHOTODYNAMIC THERAPY LIGHT IRRADIATING DEVICE AND LIGHT IRRADIATING METHOD” (Public University Corporation Nagoya City University, priority 2015, published 2018)",
  "tested_on": "HaCaT cells (human skin keratinocyte cell line)",
  "settings": "1 mM 5-ALA; 405 nm + 545 nm and 405 nm + 635 nm",
  "data": [
    {"compound": "NCC(=O)CCC(=O)O", "note": "[5-ALA, δ-aminolevulinic acid]", "values": [
      {"measurement": "amount of irradiation at which a synergistic effect is obtained", "value": "≥ 0.9", "unit": "J/cm^2"}
    ]}
  ]
}
